By UniProt entry, the sequences of proteins in these tests, tags left out. Where a name states a change or a piece, a line headed by the entry shows the natural chain unless it says otherwise.
UniProt P35372, whole entry, looked up: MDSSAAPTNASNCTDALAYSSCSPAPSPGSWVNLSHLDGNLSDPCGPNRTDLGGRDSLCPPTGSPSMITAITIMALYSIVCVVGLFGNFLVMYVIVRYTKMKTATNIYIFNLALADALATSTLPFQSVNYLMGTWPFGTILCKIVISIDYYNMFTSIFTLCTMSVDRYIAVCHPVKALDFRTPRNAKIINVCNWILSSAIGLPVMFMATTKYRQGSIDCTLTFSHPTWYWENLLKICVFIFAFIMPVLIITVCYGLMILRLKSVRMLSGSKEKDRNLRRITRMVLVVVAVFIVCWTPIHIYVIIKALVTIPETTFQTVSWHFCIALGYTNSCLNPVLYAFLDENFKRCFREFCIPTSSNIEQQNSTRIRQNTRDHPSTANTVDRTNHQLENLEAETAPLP
UniProt P41145: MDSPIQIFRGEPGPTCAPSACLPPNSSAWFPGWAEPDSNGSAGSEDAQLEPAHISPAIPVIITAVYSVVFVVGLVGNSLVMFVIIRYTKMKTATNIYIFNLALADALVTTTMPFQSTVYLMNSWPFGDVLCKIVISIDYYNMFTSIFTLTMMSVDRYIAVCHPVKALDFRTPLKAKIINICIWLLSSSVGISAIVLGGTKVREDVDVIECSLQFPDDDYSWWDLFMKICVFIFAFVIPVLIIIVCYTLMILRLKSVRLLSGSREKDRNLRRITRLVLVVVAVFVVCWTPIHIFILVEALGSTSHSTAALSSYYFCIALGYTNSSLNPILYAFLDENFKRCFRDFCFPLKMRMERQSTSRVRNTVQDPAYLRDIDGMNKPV
UniProt P41143, whole entry, looked up: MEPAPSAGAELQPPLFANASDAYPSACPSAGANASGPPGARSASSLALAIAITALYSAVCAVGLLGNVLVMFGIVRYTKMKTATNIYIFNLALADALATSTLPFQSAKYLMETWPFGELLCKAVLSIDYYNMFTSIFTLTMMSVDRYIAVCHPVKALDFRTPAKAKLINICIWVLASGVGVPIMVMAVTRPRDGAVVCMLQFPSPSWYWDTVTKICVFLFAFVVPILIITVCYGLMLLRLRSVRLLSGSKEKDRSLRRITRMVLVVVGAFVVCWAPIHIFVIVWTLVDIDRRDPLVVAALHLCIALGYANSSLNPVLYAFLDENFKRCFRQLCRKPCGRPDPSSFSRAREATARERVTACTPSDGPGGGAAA
UniProt P41146: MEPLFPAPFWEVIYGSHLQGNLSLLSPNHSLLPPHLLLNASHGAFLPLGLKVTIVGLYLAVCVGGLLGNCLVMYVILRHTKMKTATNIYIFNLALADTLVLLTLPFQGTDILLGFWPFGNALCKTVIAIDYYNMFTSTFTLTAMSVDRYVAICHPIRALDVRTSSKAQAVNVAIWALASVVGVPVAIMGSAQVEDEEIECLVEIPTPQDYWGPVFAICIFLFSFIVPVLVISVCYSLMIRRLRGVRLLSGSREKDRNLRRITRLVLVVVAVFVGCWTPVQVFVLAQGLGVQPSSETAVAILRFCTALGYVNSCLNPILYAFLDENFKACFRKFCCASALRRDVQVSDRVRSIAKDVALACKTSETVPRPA

In ChEMBL document CHEMBL1649335, “Discovery of {1-[4-(2-{hexahydropyrrolo[3,4-c]pyrrol-2(1H)-yl}-1H-benzimidazol-1-yl)piperidin-1-yl]cyclooctyl}methanol, systemically potent novel non-peptide agonist of nociceptin/orphanin FQ receptor as analgesic for the treatment of neuropathic pain: design, synthesis, and structure-activity …” (Bioorg Med Chem, 2010):

Experiments:
[1] = molecular target: Mu-type opioid receptor (Homo sapiens, UniProt P35372); details: cho-k1
[2] = molecular target: Kappa-type opioid receptor (Homo sapiens, UniProt P41145); details: hek293
[3] = molecular target: Delta-type opioid receptor (Homo sapiens, UniProt P41143); details: cho-k1
[4] = molecular target: Nociceptin receptor (Homo sapiens, UniProt P41146); details: hek293

| SMILES | Ki [1] | Ki [2] | Ki [3] | Ki [4] |
| --- | --- | --- | --- | --- |
| CC1(C)CN(c2nc3ccccc3n2C2CCN(C3(CO)CCCCCCC3)CC2)CCN1 | > 450 nM | 387 nM | > 500 nM | – |
| OCC1(N2CCC(n3c(N4CC5CNCC5C4)nc4ccccc43)CC2)CCCCCCC1 (configuration not stated) | 201 nM | > 577 nM | > 5000 nM | – |
| COC(=O)C1(N2CCC(n3c(N4CCN(C)CC4)nc4ccccc43)CC2)CCCCCCC1 | > 450 nM | > 570 nM | 312 nM | 80.5 nM |
| OCC1(N2CCC(n3c(-c4ccc(F)c(Cl)c4)nc4ccccc43)CC2)CCCCC1 | > 450 nM | – | – | – |
| OCC1(N2CCC(n3c(N4CC5CN(Cc6ccccc6)CC5C4)nc4ccccc43)CC2)CCCCCCC1 (configuration not stated) | 128 nM | 39 nM | 258 nM | 6.56 nM |
| OCC1(N2CCC(n3c(-c4ccc(Cl)cc4)nc4ccccc43)CC2)CCCCCCC1 | 178 nM | > 570 nM | 205 nM | – |
| CC1CN(c2nc3ccccc3n2C2CCN(C3(CO)CCCCCCC3)CC2)CCN1 (configuration not stated) | > 450 nM | 275 nM | > 500 nM | – |
| CN1CCN(c2nc3ccccc3n2C2CCN(C3(C(=O)O)CCCCCCC3)CC2)CC1 | > 450 nM | > 570 nM | – | – |
| CN1CCN(c2nc3ccccc3n2C2CCN(C3(CO)CCCCCCC3)CC2)CC1 | 229 nM | 333 nM | 679 nM | – |
| OCC1(N2CCC(n3c(-c4ccc(F)c(Cl)c4)nc4ccccc43)CC2)CCCCCCC1 | 302 nM | – | – | – |
